Values quoted from earlier work, collected in patent US12005185B2, “Medical counter measures including dry powder formulations and associated methods” (dated 2024).

Assays:
[1] = not given; remark: listed apart in the source

Compound	long-term stability in solution	half-life [1]
sulfanegen	poor long-term stability in solution	
O=C(O)C(=O)CS		too short to be clinically effective
